Consider one substance from patent US20240425555A1, “MUTANT BRD4 POLYPEPTIDES AND METHODS OF USE THEREOF” (Northwestern University, priority 2023, published 2024).

The target in the experiment is PTEFb (Homo sapiens+). Briefly: GFP IP-MS and GFP IP western blot of GFP-tagged BRD4 constructs. The class given is binding. The conditions noted are these: GFP-tagged; Dox 50 nM 2 days. (In western blotting, separated proteins are transferred to a membrane and probed.)

As to “CTM: GFP-tagged CTM-only construct, peptide of 37 residues (ELARKREQERRRREAMAATIDMNFQSDLLSIFEENLF; left off: large carriers)”, the “interaction with PTEFb (GFP IP-MS)” value is recorded as “cannot pull down PTEFb”.
